eIF4H FP inh: inhibitors of RNA binding by human eIF4H; Q15056; eIF4H fluorescence polarization binding assay; inhibition, % at 35 µM; 290,000 compounds, 0.94% hits; AID 2012;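 note: calls also rest on retests at 20 µM and on dose response follow-up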
Yeast UUG start: yeast start codon fidelity modulation. S. cerevisiae UUG-firefly luciferase reporter, luminescence/redox ratio. activity score, % at 18.7 µM. 0.13% of 350,000 active;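 active = replicate mean at a twofold rise or more, about +100% in these data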;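 also: firefly luciferase made from a UUG start codon reports start codon fidelity; reporter light over untreated wells divided by growth signal over untreated wells; some hits fall short of that in this replicate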
DSG3 Ab inh: human desmoglein-3 autoantibody binding inhibition; binding (percent of control), % at 10 µM; P32926; DSG3-coupled beads, scFv-anti-DSG3-GFP binding, flow cytometry; hits give low values; 310,000 compounds, 0.48% hits; AID 588358;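 active = binding more than 3 SD below its plate's average and above zero; inconclusive = below that plate limit but binding exactly zero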;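 note: hits lower antibody fragment binding to DSG3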
PABP1 MLLE inh: blocks PAM2 peptide binding to the PABP1 MLLE domain; GST-MLLE / FITC-PAM2 fluorescence polarization; inhibition, % at 20 µM; 360,000 compounds, 0.36% hits; AID 588489; in the data active = inhibition above about 35%, passing the limit was not always enough;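 note: plate controls were DMSO wells with GST-MLLE for no effect and wells lacking GST-MLLE protein for full effect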
PABP polyA inh: PABP-poly(A) binding inhibition | P11940 | PABP-poly(A) RNA binding, fluorescence polarization | calls only at 35 µM | 290,000 compounds, 1% hits | AID 2014;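 note: calls also rest on retests at 20 µM and on dose response follow-up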
Numbers without * were called inactive; i = inactive; u = inconclusive; x = no result; + = active, no number. In the library only some 1.5% were active in any assay of this set; here they are far more common. Unless noted, the rule behind the calls is not given here.

Letters: A = eIF4H FP inh; B = Yeast UUG start; C = DSG3 Ab inh; D = PABP1 MLLE inh; E = PABP polyA inh
> Cc1nc(NC(=S)NC(=O)c2ccccc2)sc1C(=O)N(C)C
  A: -10	B: -7	C: 94	D: 42*	E: i
> CS(=O)(=O)N1CCN(C(=S)NCc2ccc(Cl)cc2)CC1
  A: 82*	B: -14	C: 104	D: -120	E: +
> Nc1cc(-c2cccc(Br)c2)nn1Cc1ccccc1
  A: active	B: -13	C: 79	D: -1	E: i
> Nc1cc(-c2ccc(Br)cc2)nn1Cc1ccccc1
  A: -3	B: x	C: 103	D: 23	E: i
> COc1ccc(CNC(=O)C[C@H]2C[C@@H]3c4cc(NC(=O)CC5CC5)ccc4O[C@@H]3[C@@H](CO)O2)cc1
  A: x	B: -8	C: x	D: x	E: x
> CCOC(=O)C(=O)N/N=C/c1ccco1
  A: 94*	B: -8	C: 111	D: -6	E: +
> Cc1ccc(S(=O)(=O)Nc2ccc3c(c2)C(=O)N([C@H](C)CO)C[C@H](C)[C@H](CN(C)S(=O)(=O)c2ccc(F)cc2)OCCCC[C@H](C)O3)cc1
  A: x	B: 8	C: x	D: x	E: x
> C[C@H](CO)N1C[C@H](C)[C@H](CN(C)Cc2ccc(C(=O)O)cc2)Oc2ccc(NC(=O)Nc3ccc(F)cc3)cc2C1=O
  A: x	B: 7	C: x	D: x	E: x
> CCOc1ccc(N2CC(C(=O)Nc3ccc(OC)c(S(=O)(=O)N4CCCCC4)c3)CC2=O)cc1 (configuration not stated)
  A: 3	B: 1	C: 122	D: -22	E: +
> C[C@H]1CN([C@@H](C)CO)C(=O)c2cccc(NS(=O)(=O)c3cn(C)cn3)c2O[C@@H]1CN(C)C(=O)Nc1ccc2c(c1)OCO2
  A: x	B: 1	C: x	D: x	E: x
> CC(C)C[C@@H](CNCC(=O)[C@H](Cc1c[nH]c2ccccc12)NC(=O)c1[nH]cnc1C(=O)N[C@H](CN)CC(C)C)NC(=O)c1nc[nH]c1C(=O)N[C@@H](CC(=O)O)C(=O)O
  A: x	B: 154*	C: 158	D: -7	E: x
> CC(C)C[C@@H](CNCC(=O)[C@H](Cc1c[nH]c2ccccc12)NC(=O)c1[nH]cnc1C(=O)N[C@@H](C)CN)NC(=O)c1nc[nH]c1C(=O)N[C@@H](C)C(=O)O
  A: x	B: 141*	C: 115	D: -10	E: x
> CC(C)C[C@@H](CNCC(=O)[C@H](C)NC(=O)c1[nH]cnc1C(=O)N[C@@H](C)CN)NC(=O)c1nc[nH]c1C(=O)N[C@@H](CC(=O)O)C(=O)O
  A: x	B: -7	C: 100	D: 5	E: x
> CC(C)C[C@@H](CN)NC(=O)c1nc[nH]c1C(=O)N[C@@H](Cc1ccccc1)C(=O)CNC[C@H](C)NC(=O)c1nc[nH]c1C(=O)N[C@@H](CC(=O)O)C(=O)O
  A: x	B: 13	C: 109	D: 5	E: x
> CC(C)C[C@@H](CNCC(=O)[C@H](Cc1ccccc1)NC(=O)c1[nH]cnc1C(=O)N[C@@H](C)CN)NC(=O)c1nc[nH]c1C(=O)N[C@@H](CC(=O)O)C(=O)O
  A: x	B: 0	C: 100	D: 0	E: x
> CC(C)C[C@@H](CNCC(=O)[C@H](Cc1c[nH]c2ccccc12)NC(=O)c1[nH]cnc1C(=O)N[C@@H](C)CN)NC(=O)c1nc[nH]c1C(=O)N[C@@H](CC(=O)O)C(=O)O
  A: x	B: 154*	C: 112	D: 5	E: x
> CCCNC(=O)N[C@@H]1CC[C@@H](CC(=O)NCCc2ccccc2)O[C@@H]1CO
  A: x	B: -20	C: x	D: x	E: x
> O=C(C[C@H]1C[C@H]2c3cc(NC(=O)C4CCOCC4)ccc3O[C@H]2[C@H](CO)O1)NC1CCCCC1
  A: x	B: 1	C: x	D: x	E: x
> C[C@H]1CN([C@@H](C)CO)C(=O)Cc2cc(NC(=O)Nc3ccc4c(c3)OCO4)ccc2O[C@H]1CN(C)Cc1ccc(Cl)c(Cl)c1
  A: x	B: -5	C: x	D: x	E: x
> COc1cccc(S(=O)(=O)N2C[C@@H](O)COC[C@H]3O[C@H](CC(=O)N4CCOCC4)CC[C@@H]32)c1
  A: x	B: 6	C: x	D: x	E: x
> Nc1cc(C(=O)O)ccc1Nc1ccc(F)c(F)c1
  A: 65*	B: -31	C: 119	D: 3	E: +
> O=C(O)c1ccc(N/N=C/c2ccc(F)c(F)c2)cc1
  A: -10	B: x	C: 110	D: -8	E: i
> COc1ccc(S(=O)(=O)N(C)C[C@@H]2OCCCC[C@@H](C)Oc3ccc(NC(=O)C4CCCCC4)cc3C(=O)N([C@@H](C)CO)C[C@@H]2C)cc1
  A: x	B: -3	C: x	D: x	E: x
> COc1cc2cccc(OC)c(=O)c2c(O)c1OC
  A: -10	B: -8	C: 92	D: 1	E: u
> COc1cc2c(ccc3cc(OC)c(OC)c(O)c32)cc1O
  A: 74*	B: -14	C: 93	D: 9	E: +
> COc1cccc(C(=O)Nc2ccc3c(c2)OC[C@@H](C)N(C)C[C@@H](C)[C@@H](OC)CN(C)C3=O)c1
  A: x	B: 4	C: x	D: x	E: x
> CN1C(=O)c2cc(NC(=O)c3ccc(F)cc3)ccc2OC[C@H]2O[C@H](CC(=O)O)CC[C@@H]21
  A: x	B: 2	C: x	D: x	E: x
> Cc1noc(/C=C/Nc2ccc(F)cc2F)c1[N+](=O)[O-]
  A: 70	B: x	C: 107	D: 50*	E: i

Bioassay records deposited in PubChem by several laboratories.
